Source: article PMC6426982, “Anti-alcohol abuse drug disulfiram inhibits human PHGDH via disruption of its active tetrameric form through a specific cysteine oxidation” (Scientific Reports, 2019)

The chains behind the UniProt entries cited, without tags or fusion partners.
UniProt O43175, whole entry: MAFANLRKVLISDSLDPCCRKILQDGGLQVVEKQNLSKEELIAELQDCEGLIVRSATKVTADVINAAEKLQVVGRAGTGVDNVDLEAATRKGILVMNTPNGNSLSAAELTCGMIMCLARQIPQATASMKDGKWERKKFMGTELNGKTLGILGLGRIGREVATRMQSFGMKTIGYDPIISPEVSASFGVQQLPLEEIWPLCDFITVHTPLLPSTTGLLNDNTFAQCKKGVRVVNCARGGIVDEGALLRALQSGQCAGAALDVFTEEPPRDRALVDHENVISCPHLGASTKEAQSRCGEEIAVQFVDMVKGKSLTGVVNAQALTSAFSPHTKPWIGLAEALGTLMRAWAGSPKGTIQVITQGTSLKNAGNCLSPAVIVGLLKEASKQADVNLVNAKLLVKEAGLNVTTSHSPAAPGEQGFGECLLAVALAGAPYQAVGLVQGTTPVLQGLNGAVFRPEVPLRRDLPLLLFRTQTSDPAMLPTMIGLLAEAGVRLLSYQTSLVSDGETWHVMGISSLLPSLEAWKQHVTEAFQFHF

Biological target: human PHGDH (wild type) (Homo sapiens, UniProt O43175)
Assay: PHGDH isolated enzyme inhibition assay (NADH fluorescence), wild type
Details: SAR statement on Table 1

CCN(CC)C(=S)SCSC(=S)N(CC)CC
PHGDH inhibition compared to the parent compound DSF: only weakly or inactive
